Experimental findings from ChEMBL document CHEMBL1146655, “Novel thrombin inhibitors incorporating weakly basic heterobicyclic P1-arginine mimetics: optimization via modification of P1 and P3 moieties” (Bioorg Med Chem Lett, 2004) are described below.

This test deals with Prothrombin (Homo sapiens, UniProt P00734). The test can be described thus: In vitro inhibition of human thrombin.

As usually defined, the Ki is a measure of affinity in units of concentration, obtained from inhibition or displacement. The molecule `Cc1ccc(NS(=O)(=O)Cc2ccc(F)cc2)c(=O)n1CC(=O)N[C@H]1CCc2nc(N)sc2C1` returned a Ki of 1440 nM.
